Source: US11072634B2, “Inhibitors of transglutaminases” (Zedira GmbH, priority 2016, dated 2021)

Sequences of proteins named here, by UniProt entry; tags and fusion partners are left off.
UniProt P21980, whole entry: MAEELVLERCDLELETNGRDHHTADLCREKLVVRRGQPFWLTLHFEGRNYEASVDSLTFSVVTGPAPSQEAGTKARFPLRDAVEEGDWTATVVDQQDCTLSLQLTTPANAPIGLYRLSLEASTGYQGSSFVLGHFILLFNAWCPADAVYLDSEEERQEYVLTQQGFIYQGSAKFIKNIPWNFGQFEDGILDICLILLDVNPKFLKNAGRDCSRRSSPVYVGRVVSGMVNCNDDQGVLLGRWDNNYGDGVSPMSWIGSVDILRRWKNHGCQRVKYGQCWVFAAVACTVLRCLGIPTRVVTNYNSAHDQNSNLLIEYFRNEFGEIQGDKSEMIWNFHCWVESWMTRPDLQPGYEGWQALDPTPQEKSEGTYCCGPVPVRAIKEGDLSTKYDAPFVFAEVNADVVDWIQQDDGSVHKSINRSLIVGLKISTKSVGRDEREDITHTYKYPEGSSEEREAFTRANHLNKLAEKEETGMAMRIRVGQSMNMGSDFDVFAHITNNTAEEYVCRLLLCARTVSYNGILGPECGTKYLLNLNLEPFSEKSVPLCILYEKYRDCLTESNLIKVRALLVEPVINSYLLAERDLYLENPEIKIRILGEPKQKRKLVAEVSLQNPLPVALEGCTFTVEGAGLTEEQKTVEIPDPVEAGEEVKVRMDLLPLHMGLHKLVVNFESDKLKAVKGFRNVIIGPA

Assays:
[1] = target: recombinant human tissue transglutaminase (rhTG2) (Homo sapiens, UniProt P21980); test: Inhibition of rec. human tissue transglutaminase (fluorescence, Abz-APE(CAD-DNP)QEA-OH); conditions: read-out: IC50 TG2; Table 2, TG2 inhibitors
Procedure: Method for Inhibition Studies of Rec. Human Tissue Transglutaminase (rhTG2)
250 μg lyophilized His-tagged recombinant human tissue transglutaminase (His6-rhTG2, Zedira product 1022) is reconstituted in H2O (volume depends on original volume before lyophilization) resulting in a buffer containing 10 mM Tris-HCl, 150 mM NaCl, 1 mM EDTA, 5 mM DTT, 189 mg/ml maltodextrin, pH=8.1. The rhTG2 stock solution is diluted in buffer (50 mM Tris-HCl, 7.5 mM CaCl2, 150 mM NaCl, pH=7.4) to give a working solution of 100 U/ml (based on the amine-incorporation activity measured using T036, described below).
A 10 mM inhibitor stock solution is prepared in DMSO, and from this stock solution a serial 1:2-fold dilution series is prepared, also in DMSO. Each of these initial dilutions is subsequently diluted 1:50-fold with buffer (50 mM Tris-HCl, 7.5 mM CaCl2, 150 mM NaCl, pH=7.4) to yield the final working dilutions containing 2% (v/v) DMSO. […]
600 μl of His6-rhTG2 working solution are added to 11.4 ml assay buffer (50 mM Iris-HCl, 7.5 mM CaCl2, 150 mM NaCl, 5 mM DTI, 13.4 mM glycine methylester, 50 μM Abz-APE(CAD-DNP)QEA-OH, (Zedira product A102; patent No.: EP 1781807B1), pH=7.4). […] Increase in fluorescence is measured using λex=313 nm and λem=418 nm at 37° C. for 20 min. […]
Analysis of enzymatic activity is performed by calculation of the slope of an increase in fluorescence intensity. […]

[2] = test system: CaCo2 (human colon carcinoma cell line); test: Cell Proliferation ELISA, BrdU; conditions: highest concentration 1 mM
Procedure: (§1) The following cell lines are used for determination of cytotoxicity: • CaCo2 (human colon carcinoma cell line) • Huh7 (human liver carcinoma cell line).
(§2) Cells are cultivated in DMEM/10% FCS at 37° C. and 5% CO2 in a 96 well plate with an initial seeding density of 2×10^4 cells/well.
(§3) Transglutaminase inhibitors are added to the cells with final concentrations from 0.1 μM to 1 mM one hour after seeding. The different inhibitor dilutions are prepared in DMSO, resulting in a final concentration of 1% (v/v) DMSO in every well (2 μl inhibitor in 200 μl cell culture medium). Cycloheximide (2.5 μg/ml) and Camptothecin (0.2 μg/ml) are used as control compounds. All measurements are performed in triplicates.
(§4) Determination of proliferation using Cell Proliferation ELISA, BrdU (Roche, Cat. No. 11647229001).
(§5) After 24 h of incubation with inhibitors or controls, BrdU is added to the cells. After further incubation for 18 h, the cells are fixed and cellular DNA becomes denatured. A monoclonal antibody (conjugated with peroxidase) raised against BrdU is added to the wells and binds to BrdU which is incorporated into the DNA. Substrate solution is added and absorbance at 450 nm is recorded. Further analysis is performed according to the manufacturer's protocol.

[3] = test system: Huh7 (human liver carcinoma cell line); test: Cell Proliferation ELISA, BrdU; conditions: highest concentration 1 mM
Procedure: as §1, §2, §3, §4, §5

[4] = test system: CaCo2 (human colon carcinoma cell line); test: Metabolic activity, EZ4U-Assay; conditions: highest concentration 1 mM
Procedure: as §1, §2, §3
(§6) Determination of metabolic activity using EZ4U-Assay (Biomedica, Cat. No. BI-5000).
(§7) After 48 h of incubation with inhibitors or controls, the tetrazolium substrate is added to the cells. Substrate turnover by the cells is measured over two hours at 450 nm (using 630 nm was reference wavelength).

[5] = test system: Huh7 (human liver carcinoma cell line); test: Metabolic activity, EZ4U-Assay; conditions: highest concentration 1 mM
Procedure: as §1, §2, §3, §6, §7

[6] = test system: mouse neuroblastoma cell line N1E-115; test: Neurite outgrowth assay
Procedure: The irreversible-reversible inhibitor pair Z007 and E57 was further compared using a neurite outgrowth assay (Merck, #NS220) with mouse neuroblastoma cell line N1E-115. Laminin-coated Millicell® 12-well inserts were placed in a 12 well plate containing 1.2 mL differentiation medium (Merck, NS002). Then, 300 μL of a 10^6 N1E-115-cells/mL suspension were added. Differentiation medium contained 0 μM, 75 μM and 150 μM Nocadazole as positive controls, and 100 μM, 250 μM and 500 μM of inhibitors 2007 or E57. Nocodazole interferes with the polymerization of microtubules resulting in an antineoplastic effect.
For neurite extension the plates were incubated at 37° C. for 48 hours. Then the insert was transferred to a new 12 well plate with 1,200 μL of PBS per plate and finally to a plate with 400 μL of −20° C. methanol per well, where the cells were fixed for 20 min at room temperature. After rinsing with PBS, the insert was stained with Neurite Staining Solution for 20 min. After rinsing the inserts in PBS cell bodies were carefully swabbed off and inserts were washed again in PBS. Inserts were then transferred into 15 mL tubes and 100 μL Neurite Stain Extraction Buffer were added to the top of the inserts. After 5 min incubation at ambient temperature, tubes were centrifuged for 1 min at 1,200 rpm. Finally 75 μL extraction buffer were removed and the absorbance was determined at 590 nm.

Compound: CCC(CC)CNC(=O)Cn1cccc(NC(=O)[C@H](CCC(=O)C(=O)NC)NC(=O)OCc2ccccc2)c1=O
- IC50 [1]: 230 nM
- Cytotoxicity concentration (>10% deviation from negative control), BrdU, Caco2 [2]: >1 mM
- Cytotoxicity concentration (>10% deviation from negative control), BrdU, Huh-7 [3]: >1 mM
- Cytotoxicity concentration (>10% deviation from negative control), EZ4U, Caoo2 [4]: >1 mM
- Cytotoxicity concentration (>10% deviation from negative control), EZ4U, Huh-7 [5]: >1 mM
- reduction of neurite outgrowth ([6]; N1E-115, 500 μM, 48 hours): 18%
- neurite outgrowth, dose dependence ([6]; N1E-115, 100, 250 and 500 μM): dose dependent, but even milder impact
